In PubChem BioAssay (Tox21):
This is a selection; strong and weak results do not stand in their true shares. Records with an inconclusive call do not appear. Where a call stands in place of a potency, no number is given. Activity calls are given as the source filed them. Calls come from the whole dose curve; as a rule, active = well fitted activation curve with a large enough effect in the repeat runs; inconclusive = weak or mixed curves; inactive = flat fitted curve, though single readings scatter.

Experiment: A CellTox Green Cytotoxicity Assay to monitor cytotoxicity in HepG2 cells - 24 hour (AID 1224878); note: nearly all actives have a fitted effect of over 45% in size
Details: CellTox Green fluorescence; series mostly up to 76.8 µM
Source text: National Center for Advancing Translational Sciences [NCATS]
NIH Chemical Genomics Center [NCGC]
U.S. Environmental Protection Agency [EPA]
National Institutes of Environmental Health Sciences [NIEHS]
National Toxicology Program [NTP]
Cell-based models are critical for drug discovery. Determining the natural cytotoxic effects resulting from test compounds is an essential research activity. A CellTox Green Cytotoxicity Assay to monitor cytotoxicity in real time of continues cell culture during 40 hours of the compound treatment was used to screen Tox21 10K library compounds in HepG2 cells. CellTox Green Cytotoxicity Assay is a nonlytic, homogeneous, biofluorescent method to measure cytotoxicity in cell culture after experimental manipulation. The assay system uses a proprietary asymmetric cyanine dye that is excluded from viable cells but preferentially stains the dead cell's DNA. […] Viable cells produce no appreciable increases in fluorescence. Therefore, the fluorescence signal produced by the binding interaction with dead cell DNA is proportional to cytotoxicity.
The mixture of HepG2 cell suspension and reagents were dispensed at 600cells/6 ul/well in 1536-well tissue culture treated black solid bottom plates using a Multidrop dispenser. After the assay plates were incubated at a 37 C/5% CO2 incubator for 5 hours, 23 nL of compounds dissolved in DMSO, positive and negative controls was transferred to the assay plate by a pintool work station. The plates were incubated at 37 C for 40 hours. The fluorescence intensity were measured at 0h, 8h, 16h, 24h, 32h and 40h time points using ViewLux plate reader during compound treatment.
Potency is the fitted concentration of half-maximal effect.

Row | Structure (SMILES) | Potency | cytotoxicity
1 | CCCCO[P+](=O)OCCCC | inactive | –
2 | CCC(C)(OOC(C)(C)C)OOC(C)(C)C | – | inactive: -24% [at 15.8 µM]
3 | O=[As]c1ccccc1 (stereo not drawn) | active: 1.23 µM | –
4 | CN(C(=O)Cc1ccccc1)[C@H]1CC[C@@]2(CCCO2)C[C@@H]1N1CCCC1 | inactive | –
5 | CCNC(C)Cc1ccc2c(c1)OCO2 (stereo not drawn) | inactive | –
6 | O=[P+](Oc1ccccc1)Oc1ccccc1 | inactive | –
7 | CCCCOP(OCCCC)OCCCC | inactive | –
8 | ClP(Cl)c1ccccc1 | inactive | –
9 | O=C(Cl)Oc1ccccc1 | inactive | –
10 | CN(C(=O)Cc1cccc2occc12)[C@H]1CC[C@@]2(CCCO2)C[C@@H]1N1CCCC1 | inactive | –
11 | CCOP(=S)(CC)Sc1ccccc1 (stereo not drawn) | inactive | –
12 | CN(N=O)C(=N)N[N+](=O)[O-] | inactive | –
13 | CCCCC(CC)CO[P+](=O)OCC(CC)CCCC (stereo not drawn) | inactive | –
14 | O=C(Cl)OCCOC(=O)Cl | inactive | –
15 | O=[p+]1oc2ccccc2c2ccccc21 (stereo not drawn) | inactive | –
16 | CC(C)OP(=S)(OC(C)C)SCCNS(=O)(=O)c1ccccc1 | inactive | –
17 | NC(=O)Nc1ccc([As](=O)(O)O)cc1 | inactive | –
18 | O=[N+]([O-])c1ccc(S(=O)(=O)O)c([N+](=O)[O-])c1 | inactive | –
19 | O=P(Cl)(Oc1ccccc1)Oc1ccccc1 | inactive | –
20 | O=[N+]([O-])c1ccc([N+](=O)[O-])cc1 | inactive | –
21 | COP(=S)(Cl)OC | inactive | –
22 | Cc1cc([N+](=O)[O-])cc([N+](=O)[O-])c1O | inactive | –
23 | O=P(Cl)(Cl)c1ccccc1 | inactive | –
24 | Cc1cc([N+](=O)[O-])c(O)c([N+](=O)[O-])c1 | inactive | –
25 | CCOC(=O)Cl | inactive | –
26 | CC(C)CCCCCCCOP(OCCCCCCCC(C)C)Oc1ccccc1 | active: 61.6 µM | –
27 | CN(C(=O)Cc1ccc(Cl)c(Cl)c1)[C@H]1CC[C@@]2(CCCO2)C[C@@H]1N1CCCC1 | inactive | –
28 | COC(=O)Cl | inactive | –
